Structures are written as SMILES. The list shows a part of the results, in another mix than the full data. Activity calls are given as the source filed them. Rule as the data show it: active = inhibition above about 34% (passing the limit was not always enough); inactive = the rest.

By UniProt entry, the sequences of proteins in these tests, tags left out. Where a name states a change or a piece, a line headed by the entry shows the natural chain unless it says otherwise.
UniProt O00574: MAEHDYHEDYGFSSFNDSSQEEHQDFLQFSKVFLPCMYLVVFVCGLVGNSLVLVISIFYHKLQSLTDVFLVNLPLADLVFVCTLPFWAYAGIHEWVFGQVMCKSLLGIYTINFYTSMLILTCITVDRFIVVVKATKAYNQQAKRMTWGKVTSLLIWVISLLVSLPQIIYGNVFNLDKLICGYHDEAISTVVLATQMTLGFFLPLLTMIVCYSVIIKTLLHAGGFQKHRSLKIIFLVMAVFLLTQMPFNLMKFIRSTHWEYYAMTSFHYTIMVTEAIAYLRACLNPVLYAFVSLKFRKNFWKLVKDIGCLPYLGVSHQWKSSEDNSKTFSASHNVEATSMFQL

As a reminder, the inhibition is the relative decrease from the control value, in per cent.

This assay addresses C-X-C chemokine receptor type 6 (Homo sapiens) (UniProt O00574). Put plainly: blockade of CXCL16-induced CXCR6 beta-arrestin recruitment – cell-based, luminescence, CHO-K1 PathHunter, 1536-well, primary screen (AID 602244).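 Also: antagonist mode with CXCL16 agonist at 10 nM final; 0% = 10 nM CXCL16 with DMSO and 100% = unstimulated wells without agonist.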 As to conditions: at 20 µM, hits give high values. On the technique in general: Activated receptors often draw arrestin, which recruitment assays turn into a signal.
Turning to `CS(=O)(=O)c1cc([N+](=O)[O-])c2no[n+]([O-])c2c1`, the inhibition is inactive: 6.5%.
Regarding `O=C(O)COc1ccc([As](=O)(O)O)cc1[N+](=O)[O-]`, the inhibition is inactive: 1.8%.
For `Nc1ccccc1[As](=O)(O)c1ccccc1`, the inhibition is inactive: -4.2%.
Regarding `ClCCSc1nnc(-c2cccnc2)o1`, the inhibition is inactive: 5.7%.
Consider `CC(C)c1ccc(OP(=O)(Nc2ccccn2)Oc2ccccc2F)cc1` (stereo not given), for which the inhibition was inactive: 4.2%.
Consider `COC(=O)C1(C)COP(=O)(N2CCCCCC2)OC1` (stereo not given), for which the inhibition is inactive: -3%.
With `O=[N+]([O-])c1cc([N+](=O)[O-])c(-c2ccn[nH]2)s1`, the inhibition is inactive: -14.9%.
Turning to `O=C(OC1CN2CCC1CC2)c1cccc2[nH]cnc12` (stereo not given), the inhibition was inactive: 2.2%.
Take `CCN(CC)C(=S)SC(NC=O)C(Cl)(Cl)Cl` (stereo not given): the inhibition is inactive: 7.2%.
With `CC(C)NC(=O)NP(=O)(Oc1ccccc1)Oc1ccccc1` the figure was inactive: -1.1%; with `COc1cc(C(=O)NCC2(N3CCOCC3)CCCCC2)ccc1OCC(C)C`, inactive: 4.9%; with `O=[N+]([O-])c1ccc(-c2cc([N+](=O)[O-])c(O)c([N+](=O)[O-])c2)cc1`, inactive: 21.2%.
With `O=[As](O)(c1ccc(O)cc1)c1ccccc1O` the figure was inactive: -1.9%.
`C[As](=O)(O)c1cccc(C(=O)O)c1`: the inhibition is inactive: -2.9%.
For the compound `Cc1ccc(OP(=O)(Nc2ccc([N+](=O)[O-])cn2)Oc2ccc(C)cc2)cc1`, the inhibition is inactive: 17.1%.
For the compound `[N-]=[N+]=NC1CCCCC1NC(=O)c1cc([N+](=O)[O-])cc([N+](=O)[O-])c1` (stereo not given), the inhibition is inactive: -21%.
For `Cc1ccc2nc3c(c(C)c2c1)CC(C(Cl)Cl)S3` (stereo not given), the inhibition is inactive: 2.9%.
Regarding `O=[N+]([O-])c1cc(Oc2ccc([N+](=O)[O-])cc2C(F)(F)F)cc([N+](=O)[O-])c1`, the inhibition was inactive: -3%.
Regarding `COc1ccc(N/C(=N/P(=O)(N2CCOCC2)N2CCOCC2)N2CCOCC2)cc1`, the inhibition was inactive: -12.6%.
Take `Cc1c2c(nc3ccccc13)SC(C(Cl)Cl)C2` (stereo not given): the inhibition was inactive: -11.2%.
As for `Cc1cc(=O)[nH]c(N[N+](=O)[O-])n1`, the inhibition is inactive: -3.7%.
As to `O=C(OC1CN2CCC1CC2)C12CC3CC(CC(C3)C1)C2` (stereo not given), the inhibition was inactive: -10.4%.
Consider `O=P1(N(CCCl)CCCl)Nc2ccccc2N1`, for which the inhibition was inactive: -2%.
For `O=P1(N(CCCl)CCCl)OCCCN1CCCl` (stereo not given), the inhibition was inactive: 0.1%.
Regarding `COc1cc(I)ccc1[As](=O)(O)O`, the inhibition was inactive: -5.6%.
Consider `COc1ccc2nc(NP(=O)(c3ccccc3)c3ccccc3)sc2c1`, for which the inhibition was inactive: 0.3%.
`CSc1ccc(Nc2c([N+](=O)[O-])cc([N+](=O)[O-])cc2[N+](=O)[O-])cc1`: the inhibition is active: 47.6%.
Consider `O=C(OC1CN2CCC1CC2)c1cccc([N+](=O)[O-])c1` (stereo not given), for which the inhibition is inactive: 2.4%.
On to `CCOC(=O)c1ccc(NC(=O)C(C)(CCl)SC)cc1` (stereo not given), for which the inhibition was inactive: -1.3%.
Take `CCC(C)N(CC(C)C)C(=S)SC(NC(C)=O)C(Cl)(Cl)Cl` (stereo not given): the inhibition was inactive: 25.3%.
For the compound `COC(=O)C1(C)COP(=O)(N2CCCC2)OC1` (stereo not given), the inhibition was inactive: 0.1%.
Regarding `COP1(=S)c2c(C)nn(CCC#N)c2N=C(c2ccc(F)cc2)N1C` (stereo not given), the inhibition was inactive: 5.5%.
With `O=C(O)C(=O)c1ccc(N(CCCl)CCCl)cc1`, the inhibition was inactive: 2.8%.
Take `O=C(Nc1ccncc1[N+](=O)[O-])c1ccc([N+](=O)[O-])cc1[N+](=O)[O-]`: the inhibition is inactive: -1.6%.
For `O=C(COc1ccccc1)OC1CN2CCC1CC2` (stereo not given), the inhibition is inactive: 7.8%.
In the case of `CCOC(=O)Nc1cccc([As](=O)(O)O)c1`, the inhibition was inactive: 2.7%.
As to `Cc1cc(SC(NC=O)C(Cl)(Cl)Cl)ncn1` (stereo not given), the inhibition is inactive: -10.8%.
With `O=P(Nc1ccccn1)(c1cccc2ccccc12)c1cccc2ccccc12` the figure was inactive: -21.7%; with `O=[N+]([O-])c1ccc(Nc2ccc(Oc3ccc([N+](=O)[O-])cc3[N+](=O)[O-])cc2)c([N+](=O)[O-])c1`, inactive: -5.3%.
Consider `O=C(O)C(O)c1ccc(N(CCCl)CCCl)cc1` (stereo not given), for which the inhibition was inactive: 0.3%.
Regarding `CCOC(=O)Nc1ccc([As](=O)(O)O)c(O)c1`, the inhibition was inactive: -3.4%.
Then `CC1CCNP(=O)(N(CCCl)CCCl)O1` (stereo not given), with inactive: 1.9%; and `COP(=O)(OC)N1CC1c1ccccc1` (stereo not given), with inactive: -0.3%; and `Cc1cc(SC(NC(=O)c2ccccc2)C(Cl)(Cl)Cl)nc(C(C)C)n1` (stereo not given), with inactive: 1.6%.
On to `CCCCOc1ccc(C(=O)NCC2(N3CCCCC3)CCCCC2)cc1OC`, for which the inhibition is inactive: 3.7%.

For the origin of these results see PubChem BioAssay AID602244 (Sanford-Burnham Center for Chemical Genomics, 2012).
